Assays:
[1] = molecular target: rat PTH2 receptor (rat, UniProt P70555 25-546); experiment: cell-based or functional assay
[2] = molecular target: human parathyroid hormone type 2 receptor (PTH2 receptor) (human) (UniProt P49190); experiment: cell-based or functional assay

The chains behind the UniProt entries cited, without tags or fusion partners. Residues count along the entry.
UniProt P70555, 25-546: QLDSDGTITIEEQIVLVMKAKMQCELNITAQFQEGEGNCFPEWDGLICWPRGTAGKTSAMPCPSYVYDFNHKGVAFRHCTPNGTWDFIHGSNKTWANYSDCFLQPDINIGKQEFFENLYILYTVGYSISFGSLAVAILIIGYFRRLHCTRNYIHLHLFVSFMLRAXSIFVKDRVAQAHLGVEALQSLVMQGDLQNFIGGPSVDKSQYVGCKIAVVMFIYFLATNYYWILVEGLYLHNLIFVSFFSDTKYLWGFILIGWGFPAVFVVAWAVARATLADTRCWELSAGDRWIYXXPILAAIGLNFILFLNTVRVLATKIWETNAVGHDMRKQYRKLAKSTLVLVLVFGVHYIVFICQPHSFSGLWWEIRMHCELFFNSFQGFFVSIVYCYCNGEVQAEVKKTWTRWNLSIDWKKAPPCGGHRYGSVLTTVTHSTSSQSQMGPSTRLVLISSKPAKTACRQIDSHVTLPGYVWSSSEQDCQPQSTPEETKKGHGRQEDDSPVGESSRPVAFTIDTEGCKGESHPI
UniProt P49190, 25-550: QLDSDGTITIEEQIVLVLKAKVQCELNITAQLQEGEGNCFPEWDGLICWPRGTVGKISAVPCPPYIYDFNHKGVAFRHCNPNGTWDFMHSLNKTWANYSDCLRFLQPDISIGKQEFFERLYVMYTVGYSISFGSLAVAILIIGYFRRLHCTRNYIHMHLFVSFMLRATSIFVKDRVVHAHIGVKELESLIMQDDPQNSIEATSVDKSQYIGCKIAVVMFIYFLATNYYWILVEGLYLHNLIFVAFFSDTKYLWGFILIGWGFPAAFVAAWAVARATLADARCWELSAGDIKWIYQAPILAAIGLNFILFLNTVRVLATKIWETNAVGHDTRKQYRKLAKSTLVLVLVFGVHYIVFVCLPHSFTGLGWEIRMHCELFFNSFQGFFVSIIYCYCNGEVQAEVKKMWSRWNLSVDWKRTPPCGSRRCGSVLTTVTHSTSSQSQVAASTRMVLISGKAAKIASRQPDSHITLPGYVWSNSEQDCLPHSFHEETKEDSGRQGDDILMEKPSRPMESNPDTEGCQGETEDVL

Row | -logEC50 (cAMP accumulation) [1] | EC50 (cAMP accumulation) [1] | -logEC50 (cAMP accumulation) [2] | EC50 (cAMP accumulation) [2] | Binder
1 | 6.85 | 140 nM |  |  | SVSEIQLMHNLGKHLNSMERVEWLRKKLQDVHNF (peptide, UniProt P01270 32-65, looked up) [hPTH(1-34)]
2 |  |  | 8.26 | 5.5 nM | hPTH(1-84) (peptide, UniProt P01270 32-115, looked up) peptide: SVSEIQLMHNLGKHLNSMERVEWLRKKLQDVHNFVALGAPLAPRDAGSQRPRKKEDNVLVESHEKSLGEADKADVNVLTKAKSQ

Source: US20030032096A1 (US Dept. of Health and Human Services, published 2003)
